SMILES strings stand for the structures.

Protein sequences, listed by entry. Tags and fused reporters are not part of them.
UniProt P41143, whole entry: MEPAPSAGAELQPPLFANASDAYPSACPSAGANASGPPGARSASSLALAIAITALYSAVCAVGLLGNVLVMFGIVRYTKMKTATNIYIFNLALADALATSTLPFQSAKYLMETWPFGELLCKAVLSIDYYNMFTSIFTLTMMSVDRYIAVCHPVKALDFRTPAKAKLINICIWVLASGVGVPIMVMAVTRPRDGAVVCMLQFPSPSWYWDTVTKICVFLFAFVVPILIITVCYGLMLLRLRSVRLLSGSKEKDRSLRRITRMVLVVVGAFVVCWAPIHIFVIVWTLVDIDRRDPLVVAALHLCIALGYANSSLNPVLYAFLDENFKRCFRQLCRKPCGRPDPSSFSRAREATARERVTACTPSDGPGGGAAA

The assay addresses Delta-type opioid receptor (Homo sapiens, UniProt P41143). The assay can be described thus: Agonist activity at delta opioid receptor expressed in CHO cells assessed as inhibition of forskolin-stimulated cAMP production by ALPHAscreen assay.
In the case of `COc1ccc(C(=O)N(c2cc(C)ccn2)C2CCN(c3cc(N)ccn3)CC2)cc1`, the EC50 was 0.009 µM. Regarding `CC(=O)N(c1ccccc1)C1CCN(c2cc(N)ccn2)CC1`, the EC50 was determined as 0.207 µM. Consider `COc1cccc(C(=O)N(c2ccccn2)C2CCN(c3cc(N)ccn3)CC2)c1`, for which the EC50 came out at 0.052 µM. On to `Nc1ccnc(N2CCC(N(C(=O)C3CC3)c3ccccn3)CC2)c1`, for which the EC50 came to 0.108 µM. Consider `Nc1ccnc(N2CCC(N(C(=O)C3CCCCC3)c3ccccn3)CC2)c1`, for which the EC50 worked out at 0.03 µM.
